Source: ChEMBL document CHEMBL1149340, “Optimization and SAR for dual ErbB-1/ErbB-2 tyrosine kinase inhibition in the 6-furanylquinazoline series” (Bioorg Med Chem Lett, 2006)

Protein sequences, listed by entry. Tags and fused reporters are not part of them.
UniProt P00533, whole entry: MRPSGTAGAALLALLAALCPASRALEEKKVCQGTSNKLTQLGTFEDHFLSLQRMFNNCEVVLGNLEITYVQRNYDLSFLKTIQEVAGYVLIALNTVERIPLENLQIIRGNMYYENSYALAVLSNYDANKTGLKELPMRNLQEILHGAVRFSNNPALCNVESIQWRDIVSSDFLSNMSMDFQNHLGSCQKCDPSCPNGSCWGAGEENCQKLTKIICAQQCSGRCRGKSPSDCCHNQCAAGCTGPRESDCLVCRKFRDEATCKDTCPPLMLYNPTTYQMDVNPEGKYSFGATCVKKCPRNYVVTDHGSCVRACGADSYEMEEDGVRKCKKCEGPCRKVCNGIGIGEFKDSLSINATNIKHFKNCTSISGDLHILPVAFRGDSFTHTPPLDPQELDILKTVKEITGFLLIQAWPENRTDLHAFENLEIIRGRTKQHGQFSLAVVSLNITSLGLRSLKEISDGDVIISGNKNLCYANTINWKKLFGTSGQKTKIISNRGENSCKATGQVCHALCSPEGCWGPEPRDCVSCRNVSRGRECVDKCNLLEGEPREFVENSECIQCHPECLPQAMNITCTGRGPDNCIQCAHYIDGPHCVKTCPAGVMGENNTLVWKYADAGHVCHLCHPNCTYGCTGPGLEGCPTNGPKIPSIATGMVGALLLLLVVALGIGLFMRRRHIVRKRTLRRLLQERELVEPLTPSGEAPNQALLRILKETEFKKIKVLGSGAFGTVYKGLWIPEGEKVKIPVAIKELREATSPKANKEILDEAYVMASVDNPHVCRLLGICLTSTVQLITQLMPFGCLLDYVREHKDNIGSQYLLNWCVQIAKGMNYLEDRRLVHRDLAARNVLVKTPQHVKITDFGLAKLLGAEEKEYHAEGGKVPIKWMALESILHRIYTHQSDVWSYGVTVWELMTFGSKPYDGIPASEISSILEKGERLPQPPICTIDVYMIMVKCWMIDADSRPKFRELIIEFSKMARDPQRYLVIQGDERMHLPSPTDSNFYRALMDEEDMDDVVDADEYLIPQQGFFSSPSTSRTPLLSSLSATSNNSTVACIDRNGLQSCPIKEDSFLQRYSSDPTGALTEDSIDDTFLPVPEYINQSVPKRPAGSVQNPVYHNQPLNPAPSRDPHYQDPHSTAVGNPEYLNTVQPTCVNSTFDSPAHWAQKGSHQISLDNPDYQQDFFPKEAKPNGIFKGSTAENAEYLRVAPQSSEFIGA

Experiments:
[1] = target: Epidermal growth factor receptor (Homo sapiens, UniProt P00533)
HN5 = experiment: cells; conditions: Homo sapiens, HN5, 72 h

IC50 [1]: 25 nM
IC50 (HN5): 260 nM
Structure (SMILES): CS(=O)(=O)CCNCc1ccc(-c2ccc3ncnc(Nc4ccc(OCc5ccccc5)c(Br)c4)c3c2)o1
